By UniProt entry, the sequences of proteins in these tests, tags left out. Residues count along the entry.
UniProt P06276, 29-602 limits assumed: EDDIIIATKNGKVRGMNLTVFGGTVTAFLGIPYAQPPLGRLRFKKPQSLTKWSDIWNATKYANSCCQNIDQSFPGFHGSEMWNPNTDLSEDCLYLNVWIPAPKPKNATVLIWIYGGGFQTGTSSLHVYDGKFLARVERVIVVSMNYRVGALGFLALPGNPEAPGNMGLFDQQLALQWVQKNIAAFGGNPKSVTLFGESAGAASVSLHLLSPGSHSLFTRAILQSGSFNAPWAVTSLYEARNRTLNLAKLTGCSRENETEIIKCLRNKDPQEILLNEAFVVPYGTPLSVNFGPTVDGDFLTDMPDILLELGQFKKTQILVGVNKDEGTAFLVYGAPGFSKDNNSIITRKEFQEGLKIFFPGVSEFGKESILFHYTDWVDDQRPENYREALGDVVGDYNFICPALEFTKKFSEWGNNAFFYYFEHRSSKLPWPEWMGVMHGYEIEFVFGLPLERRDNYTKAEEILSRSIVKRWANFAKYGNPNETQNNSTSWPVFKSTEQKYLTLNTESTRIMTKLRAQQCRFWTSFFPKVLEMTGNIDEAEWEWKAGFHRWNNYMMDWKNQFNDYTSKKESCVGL

According to article PMC11201660 (Biomolecules, 2024):

Assays:
[1] = biological target: T1, cyclosarin-inhibited BChE (Homo sapiens, UniProt P06276); test: Oxime-assisted reactivation of cyclosarin-inhibited BChE
[2] = biological target: T1, cyclosarin-inhibited BChE; conditions: cited from earlier work

Compound | overall reactivation rate constant kr ([1]; 0.01–0.2 mM oxime, 25 °C) [M⁻¹ s⁻¹] | time t in which maximal reactivation was achieved ([1]; detailed kinetics, 25 °C) [min] | overall reactivation rate constant kr ([2]; 0.1–1 mM HI-6) [M⁻¹ s⁻¹] | time t in which maximal reactivation was achieved [2] [min] | observed first-order reactivation rate kobs (in words) ([1]; oxime 0.1 mM screening)
O/N=C/c1occc1/C=C\c1ccc(Cl)cc1 [cis,syn-16, (E)-3-((Z)-4-chlorostyryl)furan-2-carbaldehyde oxime] | 7.07 ± 0.65 | 105 | – | – | –
HI-6 | – | – | 13 ± 0.5 | 30 | highest observed first-order reactivation rate

Where two headings read alike, the source gives them in different places.
